# scFv variants of Ab-95 (light chain) against a SARS-CoV-2 spike peptide

From the AlphaSeq antibody data of Engelhart et al. 2022 (doi:10.1038/s41597-022-01779-4), copy in the FLAb collection.

Binding partner: SARS-CoV-2 spike HR2 peptide, sequence PDVDLGDISGINAS.

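The starting antibody came from a phage panning campaign against this peptide. Library AAYL52 holds single substitutions and randomly drawn double and triple substitutions in the CDRs. Affinity was read by AlphaSeq, a pooled yeast mating assay with surface-displayed partners. Pairs that bind mate more often; barcode pairs of the diploids are counted by sequencing. Each replicate has its own calibration line, from reference interactions of the BCL2 family. The assay was run in three technical replicates.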

The variants keep the heavy chain, the linker and the frameworks of Ab-95 (scFv order VH, a (GGGGS)3 linker, VL).
VH: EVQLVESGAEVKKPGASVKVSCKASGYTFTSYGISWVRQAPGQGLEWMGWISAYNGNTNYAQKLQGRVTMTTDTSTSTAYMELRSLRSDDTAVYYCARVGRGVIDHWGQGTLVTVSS
VL: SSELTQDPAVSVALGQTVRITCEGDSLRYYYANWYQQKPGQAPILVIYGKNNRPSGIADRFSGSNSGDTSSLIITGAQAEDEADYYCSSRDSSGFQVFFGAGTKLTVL

Each variant is given by its three light chain CDRs, as the data file delimits them; those of the parent are EGDSLRYYYAN, GKNNRPS, SSRDSSGFQVF. Values are log10 of the apparent Kd in nM; lower means stronger binding. Averages over replicates are reported, and they cover detected replicates only. Where no diploid with the target was found in that replicate, the entry reads "ND": below detection, most likely a poor binder, though not proof of it. Three control strains display no target. For library AAYL52, 28% of the pairings with them gave a signal, with a median of 3.91 and one signal in twenty below 2.90, so weak values seen in few replicates may be background. Also given: how often the same scFv was detected with the empty control strains, with their mean in brackets.

{"CDR-L1": "EGYSLVYYYAN", "CDR-L2": "GKNNPPS", "CDR-L3": "SSRDSSGFQVF", "replicates, log10 nM": "ND ND ND", "log10 Kd (nM), mean": "ND", "signal with controls": "2/9 (3.54)"}
{"CDR-L1": "EGDSLIYPYAN", "CDR-L2": "GKNNRMS", "CDR-L3": "SSRDSSGFQVF", "replicates, log10 nM": "3.28 2.69 2.32", "log10 Kd (nM), mean": "2.76", "signal with controls": "4/9 (4.47)"}
{"CDR-L1": "EGDSLRYYYAN", "CDR-L2": "LKNNRPS", "CDR-L3": "SSRQSSQFQVF", "replicates, log10 nM": "ND 5.12 ND", "log10 Kd (nM), mean": "5.12", "signal with controls": "2/9 (3.33)"}
{"CDR-L1": "EGDSLRYYYAN", "CDR-L2": "GKNNRPD", "CDR-L3": "SSRDSSNFQVF", "replicates, log10 nM": "1.33 1.26 0.26", "log10 Kd (nM), mean": "0.95", "signal with controls": "1/9 (3.40)"}
{"CDR-L1": "EGDSLRYYYAN", "CDR-L2": "GKNARPS", "CDR-L3": "SSRDSSGFGVF", "replicates, log10 nM": "3.17 2.54 ND", "log10 Kd (nM), mean": "2.86", "signal with controls": "4/9 (3.97)"}
{"CDR-L1": "EGDSLRYYYAN", "CDR-L2": "GKNNVPS", "CDR-L3": "SSRSSSDFQVF", "replicates, log10 nM": "ND 3.98 3.44", "log10 Kd (nM), mean": "3.71", "signal with controls": "1/9 (4.77)"}
{"CDR-L1": "EGDSLRSYYAN", "CDR-L2": "GKNNRPS", "CDR-L3": "SSRDSTGFQVR", "replicates, log10 nM": "2.98 2.98 3.04", "log10 Kd (nM), mean": "3.00", "signal with controls": "2/9 (4.33)"}
{"CDR-L1": "EGDSLRYYYAN", "CDR-L2": "GKNNQSF", "CDR-L3": "SSRDSSGFQVF", "replicates, log10 nM": "1.53 1.74 0.75", "log10 Kd (nM), mean": "1.34", "signal with controls": "2/9 (4.99)"}
{"CDR-L1": "EGDSLRYYYAN", "CDR-L2": "LKNNRPS", "CDR-L3": "SSRDSVGFQVE", "replicates, log10 nM": "ND ND ND", "log10 Kd (nM), mean": "ND", "signal with controls": "0/9"}
{"CDR-L1": "EGDSLRYYYAN", "CDR-L2": "GKNNRPS", "CDR-L3": "SSRDSSSFGEF", "replicates, log10 nM": "3.17 3.39 4.80", "log10 Kd (nM), mean": "3.79", "signal with controls": "5/9 (4.01)"}
{"CDR-L1": "EIDYLRYYYAN", "CDR-L2": "GKNNRPS", "CDR-L3": "SSRDSSGFQVF", "replicates, log10 nM": "4.79 ND 2.52", "log10 Kd (nM), mean": "3.65", "signal with controls": "2/9 (3.45)"}
{"CDR-L1": "ECDSLRYYYAN", "CDR-L2": "GKNNRPS", "CDR-L3": "FSRDCSGFQVF", "replicates, log10 nM": "ND 4.97 ND", "log10 Kd (nM), mean": "4.97", "signal with controls": "4/9 (3.71)"}
{"CDR-L1": "ELDSLRYYYWN", "CDR-L2": "GKNNRPG", "CDR-L3": "SSRDSSGFQVF", "replicates, log10 nM": "3.83 ND 4.03", "log10 Kd (nM), mean": "3.93", "signal with controls": "0/9"}
{"CDR-L1": "EGDSLRYRYAN", "CDR-L2": "GKNNRPS", "CDR-L3": "SSDDSSGKQVF", "replicates, log10 nM": "ND ND ND", "log10 Kd (nM), mean": "ND", "signal with controls": "2/9 (4.38)"}
{"CDR-L1": "YGDSLRYYYAN", "CDR-L2": "GINNRPS", "CDR-L3": "SSRNSSGFQVF", "replicates, log10 nM": "4.05 3.38 ND", "log10 Kd (nM), mean": "3.72", "signal with controls": "3/9 (3.54)"}
{"CDR-L1": "EGDSLRYYYAN", "CDR-L2": "GKNNRPS", "CDR-L3": "SSMDESGFEVF", "replicates, log10 nM": "ND 3.76 ND", "log10 Kd (nM), mean": "3.76", "signal with controls": "1/9 (4.81)"}
{"CDR-L1": "EGDSLREYYAN", "CDR-L2": "NKSNRPS", "CDR-L3": "SSRDSSGFQVF", "replicates, log10 nM": "4.41 4.53 2.67", "log10 Kd (nM), mean": "3.87", "signal with controls": "3/9 (3.97)"}
{"CDR-L1": "EGDSLRYYYAN", "CDR-L2": "GKNNRPS", "CDR-L3": "SSGDSSGFDVF", "replicates, log10 nM": "2.62 2.62 1.86", "log10 Kd (nM), mean": "2.37", "signal with controls": "2/9 (4.05)"}
{"CDR-L1": "EGCGLRYYYAN", "CDR-L2": "GKNNRPS", "CDR-L3": "SSRDSSGFKVF", "replicates, log10 nM": "2.62 2.70 2.72", "log10 Kd (nM), mean": "2.68", "signal with controls": "3/9 (4.10)"}
{"CDR-L1": "EGDSLRYYYSN", "CDR-L2": "GKNAWPS", "CDR-L3": "SSRDSSGFQVF", "replicates, log10 nM": "ND 4.71 3.38", "log10 Kd (nM), mean": "4.05", "signal with controls": "5/9 (4.62)"}
{"CDR-L1": "EGDVLRYYYAN", "CDR-L2": "GKNNRPS", "CDR-L3": "SSRMSSGFQVG", "replicates, log10 nM": "5.00 ND ND", "log10 Kd (nM), mean": "5.00", "signal with controls": "2/9 (4.23)"}
{"CDR-L1": "MGDSLRYYYAN", "CDR-L2": "GKCNRPS", "CDR-L3": "SSRDSSGFEVF", "replicates, log10 nM": "3.58 3.12 2.71", "log10 Kd (nM), mean": "3.14", "signal with controls": "3/9 (3.90)"}
{"CDR-L1": "SGDSLRYYYAN", "CDR-L2": "GKNNRDS", "CDR-L3": "SSRDSSGFQVF", "replicates, log10 nM": "1.94 2.19 1.37", "log10 Kd (nM), mean": "1.83", "signal with controls": "2/9 (4.28)"}

Picked from the list: the 2 lowest averages where every replicate gave a value.

{"CDR-L1": "EGDSLRYYYAN", "CDR-L2": "GKNNRPD", "CDR-L3": "SSRDSSNFQVF", "replicates, log10 nM": "1.33 1.26 0.26", "log10 Kd (nM), mean": "0.95", "signal with controls": "1/9 (3.40)"}
{"CDR-L1": "EGDSLRYYYAN", "CDR-L2": "GKNNQSF", "CDR-L3": "SSRDSSGFQVF", "replicates, log10 nM": "1.53 1.74 0.75", "log10 Kd (nM), mean": "1.34", "signal with controls": "2/9 (4.99)"}